Measurements from PubChem BioAssay (Tox21).
The list shows a part of the results, in another mix than the full data. Inconclusive results are not listed. Calls of active or inactive are those of the source. Unless noted, the call rests on the fitted dose curve.

Sequences of proteins named here, by UniProt entry; tags and fusion partners are left off.
UniProt Q969F8, whole entry: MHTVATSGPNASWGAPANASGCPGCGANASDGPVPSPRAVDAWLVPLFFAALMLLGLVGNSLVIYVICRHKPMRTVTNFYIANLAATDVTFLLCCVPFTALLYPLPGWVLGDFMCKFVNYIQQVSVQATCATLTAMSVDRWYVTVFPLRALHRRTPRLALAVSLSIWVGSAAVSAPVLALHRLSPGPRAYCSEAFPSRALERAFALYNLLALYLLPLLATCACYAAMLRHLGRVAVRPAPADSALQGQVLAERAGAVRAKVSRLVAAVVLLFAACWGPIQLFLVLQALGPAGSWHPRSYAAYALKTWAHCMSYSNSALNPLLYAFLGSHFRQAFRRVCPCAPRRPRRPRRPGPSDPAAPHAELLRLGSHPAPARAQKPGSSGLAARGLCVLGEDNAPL
UniProt P28223, whole entry: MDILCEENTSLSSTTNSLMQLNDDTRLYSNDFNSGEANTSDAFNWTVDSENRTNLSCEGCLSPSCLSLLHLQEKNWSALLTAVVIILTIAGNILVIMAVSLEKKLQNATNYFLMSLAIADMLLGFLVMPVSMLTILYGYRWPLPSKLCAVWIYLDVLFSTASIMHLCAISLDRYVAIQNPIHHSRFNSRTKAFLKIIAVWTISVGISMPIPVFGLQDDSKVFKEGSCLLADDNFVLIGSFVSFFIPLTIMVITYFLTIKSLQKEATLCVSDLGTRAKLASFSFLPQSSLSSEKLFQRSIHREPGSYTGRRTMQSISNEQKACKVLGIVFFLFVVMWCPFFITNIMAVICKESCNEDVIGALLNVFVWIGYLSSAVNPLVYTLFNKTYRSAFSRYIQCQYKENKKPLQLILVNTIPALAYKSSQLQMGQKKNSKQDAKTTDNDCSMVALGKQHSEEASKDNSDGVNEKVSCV
UniProt P07550, whole entry: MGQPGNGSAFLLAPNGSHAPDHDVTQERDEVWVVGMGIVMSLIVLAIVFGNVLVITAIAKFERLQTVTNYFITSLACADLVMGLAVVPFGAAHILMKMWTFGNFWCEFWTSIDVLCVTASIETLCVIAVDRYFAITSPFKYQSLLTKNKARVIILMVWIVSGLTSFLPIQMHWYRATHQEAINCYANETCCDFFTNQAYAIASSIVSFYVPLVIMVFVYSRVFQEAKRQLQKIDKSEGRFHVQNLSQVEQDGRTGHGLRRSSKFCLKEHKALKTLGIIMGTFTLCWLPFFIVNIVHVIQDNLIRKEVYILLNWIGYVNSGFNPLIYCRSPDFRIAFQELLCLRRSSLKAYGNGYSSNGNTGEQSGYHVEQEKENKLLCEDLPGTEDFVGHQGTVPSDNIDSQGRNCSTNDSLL
UniProt P14416, whole entry: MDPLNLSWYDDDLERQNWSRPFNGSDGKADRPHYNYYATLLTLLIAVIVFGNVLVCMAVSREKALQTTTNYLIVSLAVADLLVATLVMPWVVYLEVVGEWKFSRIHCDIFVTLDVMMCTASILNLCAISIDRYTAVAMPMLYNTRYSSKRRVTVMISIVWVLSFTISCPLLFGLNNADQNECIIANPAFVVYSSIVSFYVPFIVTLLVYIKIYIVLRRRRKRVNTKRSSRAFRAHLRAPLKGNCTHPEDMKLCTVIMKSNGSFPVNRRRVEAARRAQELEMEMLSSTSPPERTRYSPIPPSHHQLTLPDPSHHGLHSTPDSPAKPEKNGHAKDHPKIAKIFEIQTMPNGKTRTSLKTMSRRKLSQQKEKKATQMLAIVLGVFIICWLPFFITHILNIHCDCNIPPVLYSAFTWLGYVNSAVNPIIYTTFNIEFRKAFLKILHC

Tests used:
[1] = Nuclear factor erythroid 2-related factor 2/antioxidant responsive element (Nrf2/ARE) small molecule agonists: qHTS cell viability counter screen in human keratinocytes (AID 1919968; active means well fitted curve in the direction sought with a large enough effect in the repeat runs; an effect the other way counts as inactive or inconclusive; further: nearly all actives have a fitted effect of over 55% in size); conditions: KeratinoSens HaCaT ARE cells viability, CellTiter-Fluor, 24 h; at 92.4 µM (top of the series)
Procedure, shortened: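 Fluorescence read-out from CellTiter-Fluor after 1 h at 37 C. Wells held HaCaT-derived ARE-luciferase reporter cells (1,500/well) treated 23 h with DMSO-dissolved compounds. Run in the same wells as the luciferase agonist read.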

[2] = Nuclear factor erythroid 2-related factor 2/antioxidant responsive element (Nrf2/ARE) small molecule agonists: luciferase reporter gene qHTS assay in human keratinocytes (AID 1919969); conditions: KeratinoSens HaCaT ARE-luciferase, luminescence, 24 h; at 92.4 µM (top of the series); further: nearly all actives have a fitted effect of over 35% in size
From the text: National Center for Advancing Translational Sciences [NCATS]
Division of Preclinical Innovation [DPI]
U.S. Environmental Protection Agency [EPA]
National Institutes of Environmental Health Sciences [NIEHS]
National Toxicology Program [NTP]
U.S. Food and Drug Administration [FDA]
Oxidative stress has been implicated in the pathogenesis of a variety of diseases ranging from cancer to neurodegeneration. The antioxidant response element (ARE) signaling pathway plays an important role in the amelioration of oxidative stress. The KeratinoSens (Givaudan, Switzerland) is an in vitro test method which quantifies luciferase induction as a measure of activation of Keap1-Nrf2-antioxidationt/electrophile response element (ARE) dependant pathway in HaCaT human keratinocytes stably transfected with a selectable plasmid. The KeratinoSens assay is a cell-based assay with a reporter cell line to detect potential skin sensitizers by their ability to induce the Nrf2/ARE-response. The activation of the report gene under culture conditions can be detected by ONE-Glo Luciferase Assay System (Promega, Madison, WI). This cell line has been used to screen the Tox21 10K compound library to identify agonists that induce oxidative stress. […]
HaCaT derived cell line KeratinoSens were dispensed at 1,500 cells/5uL/well in 1536-well white wall/solid bottom plates using a Multidrop Combi (ThermoFisher Scientific, Waltham, MA) dispenser. […] The plates were incubated at 37 C/5% CO2 for 23 h, followed by addition of 1uL/well of CellTiter-Fluor reagent into the assay plates using a Flying Reagent Dispenser (Aurora Discovery, San Diego, CA) for cell viability readout that measures cytotoxicity. After 1 h incubation at 37 C/5% CO2 the fluorescence intensity was measured using a ViewLux (PerkinElmer, Shelton, CT) plate reader. […] After the plates were incubated at room temperature for 30 min, the luminescence intensity in the assay plates was measured using ViewLux plate reader.

[3] = target: KiSS-1 receptor (Homo sapiens) (UniProt Q969F8); test: Human kisspeptin (KISS1R) small molecule agonists, calcium flux assay in KISS1R-HEK293 cells (AID 1920064; active means well fitted curve in the direction sought with a large enough effect in the repeat runs; an effect the other way counts as inactive or inconclusive); conditions: KISS1R-HEK293, calcium flux fluorescence, agonist; at 76.8 µM (top of the series)
Procedure, shortened: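 Calcium flux read-out: kinetic fluorescence at Ex/Em=480/540, 1 s intervals over 3 min, after pin-tool compound addition to dye-loaded KISS1R-HEK293 cells. Fifteen concentrations, triplicates.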

[4] = G protein-coupled receptor (GPCR) small molecule agonists, calcium flux assay: HEK293 wild type cell line counter screen (AID 1920065); conditions: HEK293 WT calcium flux, fluorescence, agonist mode; at 57.6 µM (top of the series)
Procedure, shortened: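 Agonist mode; 18 h seeding at 37 C, 1 h dye load at 37 C; compounds pinned from DMSO, ATP as positive control; kinetic fluorescence 480/540 nm, 3 min, 1 s reads; 15 concentrations, triplicate.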

[5] = p53 small molecule agonists, cell-based qHTS assay with human liver microsomes (AID 1963577); conditions: HCT-116 p53RE-bla with human liver microsomes, ratio, 16 h; at 66 µM (top of the series);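 further: p53 response element beta-lactamase reporter cells with liver microsomes plus NADPH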
Procedure, shortened: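 In this qHTS, p53 response-element beta-lactamase cells receive test compound together with a microsome/NADPH activating system (0.5 mg/mL final each) and are incubated 16 h at 37 C before LiveBLAzer fluorescence detection.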

[6] = p53 small molecule agonists, cell-based qHTS assay with rat liver microsomes (AID 1963578); conditions: HCT-116 p53RE-bla, beta-lactamase ratio, 16 h, at 66 µM (top of the series)
Procedure, shortened: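 Agonist mode in p53RE-bla reporter cells, with compounds co-incubated 16 h at 37 C alongside 0.5 mg/mL rat liver microsomes and 0.5 mg/mL NADPH (final), followed by a 2 h LiveBLAzer detection step.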

[7] = p53 small molecule agonists, cell-based qHTS assay with human liver microsomes: qHTS cell viability counter screen (AID 1963579); conditions: p53RE-bla HCT-116 viability, ATP luminescence, 16 h, HLM; at 66 µM (top of the series); further: nearly all actives have a fitted effect of over 45% in size
Procedure, shortened: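 Metabolically activated exposure: compounds, human liver microsomes and NADPH (0.5 mg/mL final apiece) were added to p53RE-bla cells seeded 5 h earlier, left 16 h at 37 C, and then assessed for viability by CellTiter-Glo luminescence.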

[8] = p53 small molecule agonists, cell-based qHTS assay with rat liver microsomes: qHTS cell viability counter screen (AID 1963580); conditions: p53RE-bla HCT-116 + rat microsomes, ATP viability, 16 h; at 66 µM (top of the series) unless noted; further: nearly all actives have a fitted effect of over 45% in size
Procedure, shortened: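 Luminescent ATP readout (CellTiter-Glo, 30 min at room temperature) reports viability of p53RE-bla HCT-116 cells after 16 h at 37 C with test compounds under metabolic activation by rat liver microsomes and NADPH at 0.5 mg/mL final each.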

[9] = p53 small molecule agonists, cell-based qHTS assay: qHTS cell viability counter screen (AID 1963581); conditions: p53RE-bla HCT-116 viability, ATP luminescence, 16 h; at 66 µM (top of the series); further: nearly all actives have a fitted effect of over 45% in size
Procedure, shortened: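 Cytotoxicity read-out: ATP-based luminescence (CellTiter-Glo, 30 min RT) measured in the same wells as the p53 reporter assay, HCT-116 p53RE-bla cells, 16 h compound exposure at 37 C.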

[10] = p53 small molecule agonists, cell-based qHTS assay (AID 1963582; active means well fitted activation curve with a large enough effect in the signal ratio in the repeat runs, not every such curve was filed as active; the % refers to the signal ratio)
Procedure, shortened: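 Fluorescence intensity read-out of a beta-lactamase reporter under a p53 response element. Cells were exposed to DMSO-dissolved compounds for 16 h at 37 C, then developed with FRET substrate for 2 h at RT.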

[11] = target: 5-hydroxytryptamine receptor 2A (Homo sapiens) (UniProt P28223); test: 5-hydroxytryptamine receptor 2A (HTR2A) small molecule antagonists, cell-based qHTS assay (AID 1963586); conditions: HTR2A-CHO cells, DOI-induced calcium flux, fluorescence; at 61.5 µM (top of the series); further: nearly all actives have a fitted effect of over 45% in size
Procedure, shortened: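 CHO cells stably expressing human HTR2A were plated for 18 h at 37 C, then loaded with calcium dye for 1 h. Compounds were preincubated 5 min at room temperature before DOI (4 nM solution) was added. Kinetic fluorescence was read for 3 min.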

[12] = target: 5-hydroxytryptamine receptor 2A (Homo sapiens) (UniProt P28223); test: 5-hydroxytryptamine receptor 2A (HTR2A) small molecule agonists, cell-based qHTS assay (AID 1963587); conditions: HTR2A-CHO cells, calcium flux fluorescence, agonist mode; at 76.8 µM (top of the series); further: nearly all actives have a fitted effect of over 30% in size
Procedure, shortened: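 HTR2A-CHO cells, plated 18 h at 37 C/5% CO2, dye-loaded 1 h at 37 C; compounds in DMSO added by pin tool (agonist mode). Intracellular calcium flux read as kinetic fluorescence on FDSS over 2 min at 1 s intervals.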

[13] = cAMP Responsive Elements (CRE) small molecule agonists, cell-based qHTS assay (AID 1963590); conditions: CRE-bla HEK293T, beta-lactamase FRET ratio, 3 h; at 92.4 µM (top of the series)
Procedure, shortened: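 Beta-lactamase reporter readout: LiveBLAzer B/G FRET substrate, 2 h at room temperature, added after 3 h compound treatment of CRE-bla HEK 293T cells at 37 C/5% CO2.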

[14] = cAMP Responsive Elements (CRE) small molecule antagonists, cell-based qHTS assay (AID 1963591; active means well fitted inhibition curve with a large enough effect in the signal ratio in the repeat runs, not every such curve was filed as active; the % refers to the signal ratio); conditions: CRE-bla HEK293T, beta-lactamase FRET ratio; at 92.4 µM (top of the series)
Procedure, shortened: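 HEK293T CRE-bla; 18 h preincubation; compound pin-transfer; NKH477 0.25 uM final, 3 h, 37 C; LiveBLAzer FRET substrate 2 h RT.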

[15] = target: Beta-2 adrenergic receptor (Homo sapiens) (UniProt P07550); test: Adrenergic beta2 receptor (ADRB2) small molecule antagonists, cell-based qHTS assay (AID 1963592); conditions: CHO-ADRB2 cells, isoproterenol-stimulated cAMP HTRF ratio, 0.5 h; at 92.4 µM (top of the series); further: nearly all actives have a fitted effect of over 50% in size
Procedure, shortened: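 Assay format: CHO-ADRB2 cells, 18-20hr seeding at 37C/5% CO2, then compound plus 1nM isoproterenol agonist mix for 0.5hr RT. Homogeneous time-resolved fluorescence cAMP detection after 1hr, expressed as 665/615 nm ratio.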

[16] = target: Beta-2 adrenergic receptor (Homo sapiens) (UniProt P07550); test: Adrenergic beta2 receptor (ADRB2) small molecule agonists, cell-based qHTS assay (AID 1963593); conditions: CHO-ADRB2 cells, cAMP HTRF, 30 min; at 92.4 µM (top of the series);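 further: CHO cells stably overexpressing human ADRB2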
Procedure, shortened: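 CHO cells stably over-expressing ADRB2 were plated overnight at 37C, then dosed with compounds plus a stimulation mix containing 100uM IBMX and 25uM Ro-20-1724 for 0.5hr at room temperature. cAMP was measured by HTRF competition, 1hr.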

[17] = target: D(2) dopamine receptor (Homo sapiens) (UniProt P14416); test: Dopamine D2 receptor (DRD2) small molecule agonists, cell-based qHTS assay (AID 1963594); conditions: HEK293-DRD2 cAMP HTRF, agonist mode, 30 min; at 92.4 µM (top of the series); further: nearly all actives have a fitted effect of over 35% in size
Procedure, shortened: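 HEK293 cells stably expressing DRD2 were cultured 24 h at 37 C, then given Ro20-1724 (0.1 mM final) and compounds for 10 min at room temperature. NKH477 (200nM) was then added for 30 min. cAMP was read by HTRF.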
On the % scale 0 is the no-effect control and ±100 the full control effect.

CCC(=O)N(c1ccccc1)C1(COC)CCN(CCn2nnn(CC)c2=O)CC1
inactive: activity change, negative = cytotoxicity [1] 3.02% | activity, positive = activation [2] -5.21% | activation [3] 0.277% | activation [4] -0.0022% | activation [5] -3.27% | activation [6] 2.56% | activity change, negative = cytotoxicity [7] -0.674% | activity change, negative = cytotoxicity [8] -17.1% | activity change, negative = cytotoxicity [9] -28.3% | Potency [10] | activity, negative = inhibition [11] 20.9% | activation [12] 0.398% | activation [13] 0.246% | activity change, negative = inhibition [14] 4.53% | activity change, negative = inhibition [15] 5.08% | activation [16] 4.63% | activation [17] -3.56%
